From patent US4110536A, “Derivatives of 5-(indol-3-yl)hydantoin” (Miles Laboratories, Inc., priority 1977, dated 1978)

Test: in vivo
Details: mouse, ip

Question: Which LD50 at 48 h does the source give for `O=C1NC(=O)C(c2ccccc2)(c2ccccc2)N1` [III, 5,5-diphenyl-2,4-imidazolidinedione, reference compound] here?
Answer: 95 mg/kg

Question: What about the selectivity ratio of the same compound?
Answer: 0.8
